Literature values, collected in publication PMC12508576, “Implementing a trilineage differentiation in the ReproTracker assay for improved teratogenicity assessment” (Frontiers in Toxicology, 2025).

System: hiPSCs trilineage differentiation (cardiomyocytes, hepatocytes, neural rosette-like cells)
Details: based on effects on cardiomyocytes and/or hepatocytes only; ref Jamalpoor et al., 2022; cited from earlier work

Cc1ccc(NC(=O)c2ccc(CN3CCN(C)CC3)cc2)cc1Nc1nccc(-c2cccnc2)n1 [Imatinib]
LOAEL before inclusion of the neural differentiation readout: 31.3 µM
